According to patent US10167453B2, “Saccharide oxidase, and production method for same and use of same” (AMANO ENZYME INC., priority 2012, dated 2019):

Test system: Maltose monohydrate
Assay: purified protein, by the assay type
Conditions: other: saccharide as substrate of the purified protein; pH 7.0; 37.0 °C

Question: For “Acremonium chrysogenum NBRC30055-derived saccharide oxidase (Hapsidospora chrysogenum ATCC 11550)”, which Km is on record?
Answer: 14 mM
